For one compound, Ki results are on record in ChEMBL document CHEMBL2086329, “Design and synthesis of potent, selective inhibitors of matriptase” (ACS Med Chem Lett, 2012).

For this experiment, the target named is T1, Suppressor of tumorigenicity 14 protein (Homo sapiens, UniProt Q9Y5Y6).
T1 sequence (Q9Y5Y6 whole entry): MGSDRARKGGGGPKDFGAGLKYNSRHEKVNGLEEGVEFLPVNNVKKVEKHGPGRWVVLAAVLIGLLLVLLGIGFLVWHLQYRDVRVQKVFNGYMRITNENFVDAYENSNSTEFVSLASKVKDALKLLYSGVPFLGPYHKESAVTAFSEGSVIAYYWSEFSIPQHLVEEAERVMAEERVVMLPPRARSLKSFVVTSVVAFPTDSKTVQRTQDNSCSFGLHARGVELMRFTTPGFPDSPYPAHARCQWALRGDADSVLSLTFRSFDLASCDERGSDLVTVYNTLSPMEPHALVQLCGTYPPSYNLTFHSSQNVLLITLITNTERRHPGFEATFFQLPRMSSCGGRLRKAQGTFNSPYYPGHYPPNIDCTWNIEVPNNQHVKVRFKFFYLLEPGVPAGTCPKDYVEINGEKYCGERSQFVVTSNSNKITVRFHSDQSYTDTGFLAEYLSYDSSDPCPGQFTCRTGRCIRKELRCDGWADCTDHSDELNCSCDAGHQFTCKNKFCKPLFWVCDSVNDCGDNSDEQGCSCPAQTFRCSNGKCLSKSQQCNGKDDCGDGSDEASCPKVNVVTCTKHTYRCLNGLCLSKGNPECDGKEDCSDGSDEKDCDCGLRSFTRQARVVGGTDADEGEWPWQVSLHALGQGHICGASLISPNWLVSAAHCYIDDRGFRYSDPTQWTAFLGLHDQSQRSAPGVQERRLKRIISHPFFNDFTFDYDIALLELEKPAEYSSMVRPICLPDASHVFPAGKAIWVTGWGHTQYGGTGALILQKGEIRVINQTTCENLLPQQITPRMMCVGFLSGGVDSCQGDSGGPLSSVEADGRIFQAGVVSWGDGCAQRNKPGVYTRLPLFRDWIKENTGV
Put plainly: Tight binding inhibition of human matriptase expressed in Drosophila melanogaster S2 cells using Boc-QAR-AMC as substrate incubated for 15 mins prior to substrate addition measured for 30 mins by fluorimetric analysis.

In general, Ki refers to a measure of affinity in units of concentration, obtained from inhibition or displacement. `C[C@H](NC(=O)[C@H](CCC(N)=O)NC(=O)[C@@H](N)CCCN=C(N)N)C(=O)N[C@H](CCCN=C(N)N)C(=O)c1nc2ccccc2s1` displayed a Ki of 4.6 nM.
